According to patent publication US9446087B2, “Anti-resorptive and bone building dietary supplements and methods of use” (priority 2006, dated 2016):

System: Neonatal murine calvaria
Experiment: Calvarial Assay to Measure Bone Growth
Assay type: cell-based, Swiss white mice
Settings: 50 μg/ml, positive control
Experimental: Neonatal murine calvaria from 4 day old Swiss white mice are excised, placed into BGJ media (Sigma), and cut in half along the midline suture. One milliliter of BGJ media supplemented with 0.1% bovine serum albumin (BSA) is added to each well of a 12 well tissue culture plate (Costar) to which the relevant factors or vehicles are added. Each half calvaria is placed on a stainless steel grid in the above media at the media/air interface. Usually 4 bones per experimental group are used. Recombinant BMP-2 (5 μg/ml), FGF (100 ng/ml) or insulin (10 μg/ml) can be used as a positive stimulator of bone formation. Factors to be tested are added on Day 0 (the day of dissection) and media is changed at 24 and 96 hours (if a 7 day assay is required). Calvaria are maintained in humidified air (5% Co2), at 37° C. Following the period of incubation, the calvaria are then removed and fixed overnight in 10% formalin. The calvaria are then decalcified in 14% EDTA overnight and are then embedded in paraffin wax. Sections are then cut, using a standard microtome, along the midline suture to reveal the coronal suture and the region posterior to this suture. […] The total and new bone area (expressed as mm^2), suture thickness (mm), and number of cells lining the bone surface are determined in the section posterior to the sagittal suture. […]

B1: BMP2: BMP-2 used as positive control in the calvarial assay (protein, UniProt P12643 283-396, looked up)
Bone morphogenetic protein 2: QAKHKQRKRLKSSCKRHPLYVDFSDVGWNDWIVAPPGYHAFYCHGECPFPLADHLNSTNHAIVQTLVNSVNSKIPKACCVPTELSAISMLYLDENEKVVLKNYQDMVVEGCGCR
- Calvarial Assay Results- Bone formation: 8.50 ± 1.20 mm^2 × 10^−3
